Source: ChEMBL document CHEMBL4020710, “Discovery and evaluation of the hybrid of bromophenol and saccharide as potent and selective protein tyrosine phosphatase 1B inhibitors” (Eur J Med Chem, 2017)

Target: T1, Tyrosine-protein phosphatase non-receptor type 1 (Homo sapiens, UniProt P18031)
T1 sequence (P18031 whole entry): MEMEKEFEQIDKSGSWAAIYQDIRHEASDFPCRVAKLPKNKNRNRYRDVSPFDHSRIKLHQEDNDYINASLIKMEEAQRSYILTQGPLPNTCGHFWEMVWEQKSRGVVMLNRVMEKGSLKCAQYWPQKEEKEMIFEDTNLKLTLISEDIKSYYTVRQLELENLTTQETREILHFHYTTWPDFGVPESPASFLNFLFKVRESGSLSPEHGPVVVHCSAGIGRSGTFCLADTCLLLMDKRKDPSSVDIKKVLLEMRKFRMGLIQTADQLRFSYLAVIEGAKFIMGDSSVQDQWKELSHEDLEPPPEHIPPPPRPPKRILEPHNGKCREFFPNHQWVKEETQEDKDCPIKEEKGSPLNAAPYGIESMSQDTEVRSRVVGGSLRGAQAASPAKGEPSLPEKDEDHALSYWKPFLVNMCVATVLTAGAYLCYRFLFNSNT
Assay: Inhibition of PTP1B (unknown origin) using p-NPP as substrate measured every 30 secs for 15 mins

CCc1cc(C[C@H](NC(C)=O)C(=O)NCCCCOc2cccc(O)c2C(=O)OC)ccc1N(C(=O)C(=O)O)c1ccccc1C(=O)O
IC50: 18 nM
